# Publication PMC8788362, “Rational design and synthesis of 2-(1H-indazol-6-yl)-1H-benzo[d]imidazole derivatives as inhibitors targeting FMS-like tyrosine kinase 3 (FLT3) and its mutants” (Journal of Enzyme Inhibition and Medicinal Chemistry, 2022)
# Sequences of proteins named here, by UniProt entry; tags and fusion partners are left off. Residues count along the entry.
# UniProt P17948, 27-1338: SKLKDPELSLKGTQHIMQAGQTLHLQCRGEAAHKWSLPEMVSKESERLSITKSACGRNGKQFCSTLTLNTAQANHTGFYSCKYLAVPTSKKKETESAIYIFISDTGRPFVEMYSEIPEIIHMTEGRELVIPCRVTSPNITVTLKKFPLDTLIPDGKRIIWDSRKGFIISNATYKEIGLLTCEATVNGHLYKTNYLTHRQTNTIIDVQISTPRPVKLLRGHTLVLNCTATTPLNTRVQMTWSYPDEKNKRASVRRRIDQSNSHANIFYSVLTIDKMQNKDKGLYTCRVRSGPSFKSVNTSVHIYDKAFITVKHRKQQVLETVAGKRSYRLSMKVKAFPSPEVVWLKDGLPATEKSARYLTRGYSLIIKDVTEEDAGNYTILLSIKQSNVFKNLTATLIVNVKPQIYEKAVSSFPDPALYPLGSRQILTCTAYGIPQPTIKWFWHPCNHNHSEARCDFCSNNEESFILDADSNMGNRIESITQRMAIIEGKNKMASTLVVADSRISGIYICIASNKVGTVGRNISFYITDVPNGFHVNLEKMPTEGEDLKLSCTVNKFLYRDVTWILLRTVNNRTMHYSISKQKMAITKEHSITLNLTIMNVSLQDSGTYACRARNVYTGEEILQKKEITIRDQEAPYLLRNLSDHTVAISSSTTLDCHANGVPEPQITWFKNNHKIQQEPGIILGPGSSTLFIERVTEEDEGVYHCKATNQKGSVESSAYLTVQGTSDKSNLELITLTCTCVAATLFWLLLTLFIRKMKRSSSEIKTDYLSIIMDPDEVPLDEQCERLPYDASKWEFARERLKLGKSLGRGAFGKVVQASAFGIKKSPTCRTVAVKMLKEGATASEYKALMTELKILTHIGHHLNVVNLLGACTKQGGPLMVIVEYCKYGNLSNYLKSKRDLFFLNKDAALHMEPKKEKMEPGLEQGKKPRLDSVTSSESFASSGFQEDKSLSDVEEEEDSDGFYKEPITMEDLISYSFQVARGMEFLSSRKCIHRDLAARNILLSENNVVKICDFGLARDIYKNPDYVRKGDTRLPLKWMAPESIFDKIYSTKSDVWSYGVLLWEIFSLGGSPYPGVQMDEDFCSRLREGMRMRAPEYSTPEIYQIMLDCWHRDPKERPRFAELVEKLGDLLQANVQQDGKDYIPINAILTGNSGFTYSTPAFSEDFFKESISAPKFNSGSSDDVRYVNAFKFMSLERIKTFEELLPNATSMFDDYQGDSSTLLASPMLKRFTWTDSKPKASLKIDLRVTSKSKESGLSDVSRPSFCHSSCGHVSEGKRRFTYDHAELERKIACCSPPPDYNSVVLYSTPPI
# Target: FLT1/VEGFR1 (Homo sapiens, UniProt P17948)
# Experiment: biochemical
# Details: read-out: % Inhibition FLT1/VEGFR1
compound,measurement,value
"CCN1CCN(Cc2cc(C(=O)Nc3ccc4[nH]c(-c5ccc6cn[nH]c6c5)nc4c3)cc(C(F)(F)F)c2)CC1 [8r, N-(2-(1H-Indazol-6-yl)-1H-benzo[d]imidazol-5-yl)-3-((4-ethylpiperazin-1-yl)methyl)-5-(trifluoromethyl)benzamide]",inhibition at 1 µM,6%
